According to patent publication EP2057188B1 (priority 2006, dated 2008):

Tests used:
[1] = Stability in human plasma; format: in vitro ADME; conditions: 37°C, 0-5 hrs
human GIP receptor = human GIP receptor (Homo sapiens, UniProt P48546); conditions: read-out: IC50 in HEK-GIPR
GIP Receptor = target: T1, GIP Receptor (Homo sapiens, UniProt P48546); format: cell-based
T1 sequence (P48546 22-466): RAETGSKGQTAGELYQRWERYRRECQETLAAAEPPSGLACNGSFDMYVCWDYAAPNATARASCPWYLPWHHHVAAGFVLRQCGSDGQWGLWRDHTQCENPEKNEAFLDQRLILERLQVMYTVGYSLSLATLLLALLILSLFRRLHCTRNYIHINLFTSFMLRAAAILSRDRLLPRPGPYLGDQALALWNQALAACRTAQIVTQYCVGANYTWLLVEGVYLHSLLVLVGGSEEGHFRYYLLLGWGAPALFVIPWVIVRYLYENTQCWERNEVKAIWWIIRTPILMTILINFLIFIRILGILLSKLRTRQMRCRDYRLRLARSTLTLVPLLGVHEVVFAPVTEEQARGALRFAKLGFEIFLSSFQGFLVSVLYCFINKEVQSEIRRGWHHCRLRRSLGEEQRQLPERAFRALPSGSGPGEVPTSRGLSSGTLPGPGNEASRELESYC

[2] = Protease resistance with RINm5F cell membrane extracts; format: in vitro ADME; conditions: 30µM peptide, 37°C, monitored for 6 hr by LC-MS
[3] = receptor activation, read-out: Cyclase (GIPR Cyclase)

Row | Substance | human plasma stability score [1] | IC50 (human GIP receptor) | EC50 (GIP Receptor; [3]) | EC50 (GIP Receptor; the 21st table, read-out: Cyclase) | EC50 (GIP Receptor; the 20th table, read-out: GIPR Cyclase) | resistance to proteases [2]
1 | octylglycine-GIP(1-30)-Exendin-4-(31-39) [Compound 0601GIP4178] | unstable (less than about 75% remaining at 2 hours) | 0.00017 µM | 0.0362 µM | 0.096 µM |  | 
2 | YSDGTFISDYSIAMDKlHQQDFVNWLLAQKPKKIRYS-NH2 [Compound 0601GIP4386] |  |  | 0.056 µM |  |  | 
3 | YaEGTFISDYSIAMDKIHQQDFVNWLLAQKPSSGAPPPS-NH2 [Compound 0601GIP3794] | stable (greater than about 90% remaining at 5 hours of treatment to human plasma) |  |  |  | 0.038 µM | more stable than its parent molecule GIP(1-30) without the shield or the full length GIP(1-42)
4 | [dAla2, Leu14, beta-Ala31, beta-Ala32] GIP-(1-32)-Exendin-4 (31-39) [Compound 0601GIP4179] |  | 0.0007 µM | 0.0559 µM |  |  | 
5 | [dAla2]GIP-(1-30)-[Octylglycine 34] Exendin-4 (31-39) [Compound 0601GIP4252] |  |  | 0.154 µM |  |  | 

Like-named read-outs stand apart in the source and are kept apart here.
